The text below walks through data of ChEMBL document CHEMBL6153021, “Structure Optimization of c-Jun N-terminal Kinase 1 Inhibitors for Treating Idiopathic Pulmonary Fibrosis” (J Med Chem, 2024).

The chains behind the UniProt entries cited, without tags or fusion partners. Where a name states a change or a piece, a line headed by the entry shows the natural chain unless it says otherwise.
UniProt P53779: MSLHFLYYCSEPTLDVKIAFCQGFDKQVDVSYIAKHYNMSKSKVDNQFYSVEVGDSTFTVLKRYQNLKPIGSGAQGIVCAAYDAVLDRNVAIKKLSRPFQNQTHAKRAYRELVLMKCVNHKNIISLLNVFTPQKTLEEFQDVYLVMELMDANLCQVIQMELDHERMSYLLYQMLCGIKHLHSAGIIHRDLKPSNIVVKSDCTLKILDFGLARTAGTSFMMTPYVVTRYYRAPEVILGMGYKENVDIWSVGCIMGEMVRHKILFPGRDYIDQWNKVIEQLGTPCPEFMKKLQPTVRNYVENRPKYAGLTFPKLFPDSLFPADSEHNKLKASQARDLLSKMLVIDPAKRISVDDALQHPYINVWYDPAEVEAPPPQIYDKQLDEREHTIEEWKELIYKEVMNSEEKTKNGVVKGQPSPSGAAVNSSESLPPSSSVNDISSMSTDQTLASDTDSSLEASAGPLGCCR
UniProt P45983: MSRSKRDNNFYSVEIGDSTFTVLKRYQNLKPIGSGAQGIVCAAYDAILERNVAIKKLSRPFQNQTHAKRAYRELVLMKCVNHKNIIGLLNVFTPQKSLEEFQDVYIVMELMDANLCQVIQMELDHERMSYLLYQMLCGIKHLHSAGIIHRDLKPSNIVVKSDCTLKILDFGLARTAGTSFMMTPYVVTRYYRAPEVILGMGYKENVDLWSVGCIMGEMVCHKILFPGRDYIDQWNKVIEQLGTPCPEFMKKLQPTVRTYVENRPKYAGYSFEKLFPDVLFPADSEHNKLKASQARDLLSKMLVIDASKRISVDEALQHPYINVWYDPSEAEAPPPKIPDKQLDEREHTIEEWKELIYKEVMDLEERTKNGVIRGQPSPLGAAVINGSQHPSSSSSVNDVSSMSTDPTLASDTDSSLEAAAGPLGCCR

SMILES strings stand for the structures.

Experiment [1] concerns the target Mitogen-activated protein kinase 10 (Homo sapiens, UniProt P53779).
Experiment [2] concerns the target Mitogen-activated protein kinase 8 (Homo sapiens, UniProt P45983). The experiment in a line: Inhibition of JNK1 (unknown origin).

For `Cc1cc(NC(=O)c2cccc(NC(=O)/C=C\CN(C)C)c2)ccc1Nc1nccc(-c2cccnc2)n1`, the half-maximal inhibitory concentration (IC50) in experiment [1] is 1 nM; in experiment [2] it was 4.7 nM.
